Measurements reported in paper PMC3897123 (MedChemComm, 2013).

Sequences of proteins named here, by UniProt entry; tags and fusion partners are left off.
UniProt P47989, whole entry, species assumed: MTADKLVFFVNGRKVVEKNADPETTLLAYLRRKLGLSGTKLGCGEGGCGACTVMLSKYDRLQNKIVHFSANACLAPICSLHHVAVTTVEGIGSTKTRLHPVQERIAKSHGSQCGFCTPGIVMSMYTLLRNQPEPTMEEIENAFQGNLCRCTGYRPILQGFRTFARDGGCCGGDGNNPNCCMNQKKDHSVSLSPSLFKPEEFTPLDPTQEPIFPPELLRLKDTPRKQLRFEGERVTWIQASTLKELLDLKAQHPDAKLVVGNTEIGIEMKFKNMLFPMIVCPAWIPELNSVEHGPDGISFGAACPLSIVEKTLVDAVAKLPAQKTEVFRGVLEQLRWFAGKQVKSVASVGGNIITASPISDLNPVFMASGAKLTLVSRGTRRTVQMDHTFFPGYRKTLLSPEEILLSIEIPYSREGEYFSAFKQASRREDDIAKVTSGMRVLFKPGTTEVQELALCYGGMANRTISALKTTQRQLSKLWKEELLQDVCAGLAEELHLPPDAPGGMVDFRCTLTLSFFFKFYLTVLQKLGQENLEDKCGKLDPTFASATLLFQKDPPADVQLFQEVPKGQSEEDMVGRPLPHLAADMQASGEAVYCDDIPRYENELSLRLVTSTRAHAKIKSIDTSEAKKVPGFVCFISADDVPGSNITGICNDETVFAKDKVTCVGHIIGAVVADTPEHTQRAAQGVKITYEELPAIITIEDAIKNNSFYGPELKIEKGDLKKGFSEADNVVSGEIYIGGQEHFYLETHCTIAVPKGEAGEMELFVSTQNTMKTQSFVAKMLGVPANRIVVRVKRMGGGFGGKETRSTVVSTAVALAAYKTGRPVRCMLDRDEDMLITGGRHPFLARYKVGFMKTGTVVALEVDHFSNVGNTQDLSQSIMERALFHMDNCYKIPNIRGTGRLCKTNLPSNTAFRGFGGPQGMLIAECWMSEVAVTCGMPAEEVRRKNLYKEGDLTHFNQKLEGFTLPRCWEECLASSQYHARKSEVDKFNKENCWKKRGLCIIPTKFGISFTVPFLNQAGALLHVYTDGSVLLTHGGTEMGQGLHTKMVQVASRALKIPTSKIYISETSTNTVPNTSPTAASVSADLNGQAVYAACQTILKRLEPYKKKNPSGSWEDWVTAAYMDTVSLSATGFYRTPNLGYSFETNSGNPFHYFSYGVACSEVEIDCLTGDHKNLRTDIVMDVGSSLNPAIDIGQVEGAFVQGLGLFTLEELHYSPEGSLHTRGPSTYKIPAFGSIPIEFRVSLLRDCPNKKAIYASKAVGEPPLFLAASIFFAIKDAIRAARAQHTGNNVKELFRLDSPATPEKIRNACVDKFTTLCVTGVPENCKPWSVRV

Target: xanthine oxidase (XO) (Homo sapiens, UniProt P47989)
Details: various concentrations; Amplex Red detection

SMILES: [Cl-].c1ccc2c(c1)[I+]c1ccccc1-2 [DPI, Diphenylene iodonium]
- Effect on ROS levels produced by XO: complete inhibition
